Test results from publication PMC6199309, “A therapeutic approach to pantothenate kinase associated neurodegeneration” (Nature Communications, 2018).

The chains behind the UniProt entries cited, without tags or fusion partners.
UniProt Q9H999, whole entry: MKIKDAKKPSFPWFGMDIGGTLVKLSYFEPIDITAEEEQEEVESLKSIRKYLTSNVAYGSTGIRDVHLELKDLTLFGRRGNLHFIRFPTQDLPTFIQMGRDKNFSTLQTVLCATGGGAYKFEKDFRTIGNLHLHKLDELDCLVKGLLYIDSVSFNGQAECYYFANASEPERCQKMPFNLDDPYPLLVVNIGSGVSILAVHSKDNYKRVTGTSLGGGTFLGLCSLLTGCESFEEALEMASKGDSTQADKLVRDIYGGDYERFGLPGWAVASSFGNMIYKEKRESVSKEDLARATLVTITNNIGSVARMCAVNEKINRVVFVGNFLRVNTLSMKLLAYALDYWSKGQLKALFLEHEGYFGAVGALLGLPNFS

Target: human PANK3 (Homo sapiens, UniProt Q9H999)
Experiment: PANK activity assay (radiochemical, without acetyl-CoA)
Type: biochemical

- type of PANK3 inhibition with respect to ATP (ATP varied 0–125 μM): uncompetitive
- type of PANK3 inhibition with respect to pantothenate (pantothenate varied 0–180 μM): noncompetitive
- IC50 (read-out: IC50 (PANK3), without acetyl-CoA, 2.5 mM ATP, 45 μM pantothenate): 1100 nM
SMILES: CC(C)c1ccc(NC(=O)N2CCN(c3ccc(C#N)cn3)CC2)cc1
